The results in this text go back to patent US4472286A, “Perfluoroalkyl anion/perfluoroalkyl cation ion pair complexes” (Ciba-Geigy Corporation, priority 1983, dated 1984).

This data set can be described thus: Surface tension of aqueous solutions (ASTM D-1331-56). The format is physicochemical. The note with it: for Surface tension, cationic surfactant: Table 5.

As for “3-(1,1,2,2-tetrahydroperfluoro-alkylthio)-2-hydroxypropyl-trimethylammonium chloride [Example C1]”, the “Surface Tension” value was found to be 31.0 (Table 2b, 0.01% total actives, 100 mol % single surfactant); 21.6 (Table 2b, 0.1% total actives, 100 mol % single surfactant); 67.4 dynes/cm (Table 3, 0.0001%); 49.6 dynes/cm (Table 3, 0.001%); 28.1 dynes/cm (Table 3, 0.01%); 21.6 dynes/cm (Table 3, 0.1%). In addition, under “Table 3, 1.0%”, the “Surface Tension” value is on record as 19.5 dynes/cm. Further, the “Surface tension, cationic surfactant” value (0.001%) amounted to 49.6 and the “Surface tension, cationic surfactant” value (0.01%) worked out at 28.1.
